The assay deals with bovine mitochondrial elongation factor Ts (EF-Tsmt), wild type (bovine) (UniProt P43896). The assay can be described thus: native gel or EMSA. For orientation: Mobility shift assays separate free from complexed probe on a gel.

The record followed here is paper PMC2893280.

In turn, “bovine mitochondrial elongation factor Tu (EF-Tumt), wild type (from UniProt P49410 44-452) (natural protein)” showed a percent of EF-Tsmt bound at equal molar amounts of the two factors of 60%.
